In patent US20180273528A1 (LES LABORATOIRES SERVIER, priority 2015, published 2018):

Molecular target: T1, CLK1 (Homo sapiens, UniProt P49759)
T1 construct: full-length human kinases from Carna Biosciences; purchased Carna Biosciences 04-126
T1 sequence (P49759 1-526 isoform P49759-3): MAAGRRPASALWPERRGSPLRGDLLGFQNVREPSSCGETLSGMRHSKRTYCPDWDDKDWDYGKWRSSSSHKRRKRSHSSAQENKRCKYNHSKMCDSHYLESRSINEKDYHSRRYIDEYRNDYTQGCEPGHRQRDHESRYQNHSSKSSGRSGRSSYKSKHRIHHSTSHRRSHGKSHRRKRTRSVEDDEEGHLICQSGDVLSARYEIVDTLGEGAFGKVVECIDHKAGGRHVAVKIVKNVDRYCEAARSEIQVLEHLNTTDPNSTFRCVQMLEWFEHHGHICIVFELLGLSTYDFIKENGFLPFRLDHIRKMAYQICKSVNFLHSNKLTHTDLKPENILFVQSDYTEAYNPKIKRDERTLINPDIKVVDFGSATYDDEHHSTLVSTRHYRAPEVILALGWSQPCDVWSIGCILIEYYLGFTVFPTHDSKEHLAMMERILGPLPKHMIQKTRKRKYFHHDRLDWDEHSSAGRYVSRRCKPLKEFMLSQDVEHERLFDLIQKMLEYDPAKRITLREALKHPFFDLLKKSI
Test: Kinase TR-FRET assay, CLK1
Type: biochemical
Details: full-length human kinase, 10 μM ATP
Protocol: Inhibition of the enzymatic activity of human kinases was evaluated in a Time-Resolved Fluorescence Resonance Energy Transfer (TR-FRET) assay in 384-well reaction plates. […] Test compounds of the invention were added in reaction buffer at a range of concentrations from 0.1 nM to 30 μM. Following addition of EDTA (Sigma E7889, 10 mM) to stop the reaction, Europium-labelled mouse monoclonal antibody recognizing phospho-Thr232 in MBP (Perkin Elmer TRF0201, 1 nM) was added.

For `Cc1nc2ccc(-c3cc(N)nc(N)c3)nc2n1C(C)C` [Example 53, 4-[2-methyl-3-(propan-2-yl)-3H-imidazo[4,5-b]pyridin-5-yl]pyridine-2,6-diamine], the IC50 was 0.02 µM.
